# Binding of CDR-mutated scFvs to a peptide of the spike HR2 region

Reference: Li et al. 2023, doi:10.1038/s41467-023-39022-2. File: FLAb, binding data.

Target peptide (SARS-CoV-2 spike, HR2 region): PDVDLGDISGINAS

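Designed CDR sequences, proposed from the first random library and measured here. Their group label is 14L_En_Gen (En: ensemble of fine-tuned language models; Gen: genetic algorithm). AlphaSeq pools MATa yeast showing the antibodies with MATalpha yeast showing the peptide. Pairs that bind mate more often; barcode pairs of the diploids are counted by sequencing. Each replicate has its own calibration line, from reference interactions of the BCL2 family. Mating was done six times.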

Each scFv is VH, three GGGGS repeats, VL, as in the parent Ab-14, and differs from it in the CDRs of the light chain only.
VH: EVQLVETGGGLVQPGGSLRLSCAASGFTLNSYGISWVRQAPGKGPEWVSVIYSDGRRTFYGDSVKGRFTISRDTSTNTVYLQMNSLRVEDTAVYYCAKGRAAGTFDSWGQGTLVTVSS
VL: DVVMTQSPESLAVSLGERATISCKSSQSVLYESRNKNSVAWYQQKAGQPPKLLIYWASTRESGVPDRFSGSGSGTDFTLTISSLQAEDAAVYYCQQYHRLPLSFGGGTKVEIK

The parent's light chain CDRs are KSSQSVLYESRNKNSVA, WASTRES, QQYHRLPLS; each variant's own CDRs replace them letter for letter.
Numbers give log10(Kd / nM), so 0 is 1 nM and 3 is 1 µM. Smaller is tighter.
An entry "ND" has no value in the source: the pair was not observed among the diploids in that replicate. This suggests poor binding but is not conclusive.
Background: pairings of all light chain designs with three empty control strains gave a value in 4% of cases (median 2.64, 5th percentile 1.59). Values in that range, when seen in few replicates, are hard to tell from nonspecific mating. For each scFv, signals with the empty controls are counted beside the result, with their mean in brackets.

| CDR-L1 | CDR-L2 | CDR-L3 | log10 Kd, replicates | empty controls |
|---|---|---|---|---|
| TISQVMNALTRHGNNVA | DLTERED | QQYFRLPLS | 0.38 0.11 0.78 0.30 0.29 0.80 | 1/18 (2.56) |
| KLSGIMRVETKKSNSIA | EMTTRGE | QQYDRLPLS | 0.87 0.63 1.01 1.21 0.62 0.83 | 1/18 (1.61) |
| KLSMITGHQLMSKNNVA | EMETREN | QQYDRLPLS | 0.87 1.09 0.66 1.43 1.48 1.84 | 0/18 |
| KLSMLTEMEHVNRNSVA | ELVTRIS | QQYNRLPLS | 1.76 2.04 1.91 2.28 1.54 1.60 | 0/18 |
| TIADVMGHMSKNRNNVA | DMDTRGD | QQYNHLPLS | -0.17 0.08 -0.35 -0.34 -0.26 0.10 | 1/18 (2.05) |
| IVSQLMIWGMHVKNSIA | EAEQRLN | QQYERLPLF | 0.68 0.90 1.28 1.55 2.36 1.81 | 0/18 |
| MISQLFNMGQFAINSVA | QASERCN | QQYDRLPLI | 1.37 1.71 1.45 0.98 1.94 2.56 | 1/18 (2.93) |
| MFSQMWAIGNKVSNSVA | QASTRFN | QQYDRLPLI | 1.73 1.77 1.04 0.95 1.51 1.64 | 1/18 (2.58) |
| TIADIMGHVSKQTNNVA | DQNTRGD | QQYNRLPLS | -0.02 -0.17 -0.35 -0.50 -0.34 -0.20 | 1/18 (2.08) |
| KIGMVLNTLSHKQNNVA | DLVTREN | QQYFRLPLS | 0.59 0.75 0.37 1.33 0.40 0.39 | 1/18 (0.85) |
| MLSEVLHMLGVKKNSIA | DLVIRAN | QQYHRLPLQ | ND ND ND ND 2.36 1.74 | 1/18 (1.83) |
| TLYGLSNSMSINKNSVA | EMTTREK | QQYDRLPLI | 1.63 1.64 1.49 2.01 1.77 2.16 | 0/18 |
| MISQLMNYGQFAINSVA | QATIRNS | QQYDRLPLV | ND 0.90 ND 1.94 2.10 ND | 0/18 |
| NLSAMTAHESVKSKNVA | ERSTREQ | QQYNRLPLS | 1.52 2.39 ND 2.13 2.42 1.27 | 2/18 (1.84) |
| IVSQLMIWGMHLKNSIA | EAQTRLN | QQYERLPLF | 1.20 0.40 0.74 0.48 0.47 0.68 | 0/18 |
| MISQIYNMGTFAINSVA | QASIRNA | QQYDRLPLM | 2.02 1.92 2.33 2.27 1.86 1.83 | 0/18 |
| QIYQAMHTLMQAKNNVA | DVTNRQK | QQYNRLPLS | 0.96 0.77 0.93 0.70 0.65 0.66 | 0/18 |
| TIGQTLMSGVRNRSNVA | EVSQRLN | QQYDRLPLI | 1.54 1.84 1.49 1.65 1.82 1.69 | 0/18 |
| KLSMLTEMEHKNRNSVA | ELVTRMS | QQYNRLPLS | 0.62 0.51 0.34 0.40 0.47 0.68 | 1/18 (3.63) |
| IVSGLMLWGMHVKNSIA | EAVTRLN | QQYDRLPLF | ND ND ND ND ND 2.62 | 0/18 |
| MVQQLYNMGTFAINSVA | QASQRNA | QQYDRLPLM | 2.26 ND ND 1.68 3.47 1.56 | 0/18 |
| MISQLTNMGQFAINSVA | QASLRCN | QQYDRLPLM | 1.37 1.32 1.67 ND 2.78 ND | 0/18 |
| KIGMTLNTLMHKQNNVA | DLVTREN | QQYHRLPLS | 0.17 0.45 0.27 0.22 0.05 0.45 | 0/18 |
| MVTQLAMTGMMSKRSVA | NAETRET | QQYHRLPLI | 0.63 0.89 0.82 0.58 0.68 0.75 | 0/18 |
| MMSQVTGLGQRMRNNVA | QTSMRET | QQYDRLPLI | 0.63 0.49 1.00 0.29 0.61 0.84 | 1/18 (2.40) |
| KLTMITGLEKVLGNNVA | EMETRER | QQYNRLPLS | 0.78 0.61 0.82 0.67 0.49 1.00 | 1/18 (2.12) |
| KISQLVRVGSTHKNSIA | EEATRAD | QQYHRLPLA | 0.76 0.82 1.17 1.07 0.73 1.23 | 1/18 (2.86) |
| KISQMVKVGSTHSNSIA | EEQTRAK | QQYHRLPLA | 0.89 0.82 0.89 0.95 0.88 1.23 | 2/18 (3.32) |
| KLYDMAAVTMQNIRNVA | DNSTREE | QQYHRLPLS | 0.36 0.28 0.35 0.42 0.57 0.96 | 1/18 (2.62) |
| MISQLYNMGQFAINSVA | QASLRNE | QQYDHLPLM | 0.74 1.30 1.01 0.70 1.05 0.98 | 2/18 (4.01) |
| MVNGLTDHLSKNTNSVA | ETETREE | QQYERLPLS | 0.50 0.07 0.43 0.56 0.01 0.13 | 0/18 |
| HLAAMWGLESVKPNNVA | ENSTREQ | QQYDRLPLS | ND 2.30 2.04 2.67 2.53 2.04 | 4/18 (2.82) |
| QIGFLLNFESKIVNNVA | QMETRVE | QQYDRLPLS | 1.33 1.24 1.10 1.27 1.05 1.24 | 2/18 (3.04) |
| KIYQFGLNHQTSTNSIA | DQECREA | QQYDRLPLS | 0.98 0.81 0.86 0.83 0.86 1.02 | 1/18 (2.14) |
| TISQVMNTLTRNENNVA | DLTEREK | QQYFRLPLS | 0.13 0.19 -0.03 -0.27 -0.10 0.28 | 1/18 (2.66) |
| KVSEFMKGLMMRTDSIA | DNNTRGS | QQYDRLPLS | 2.22 1.26 1.15 1.33 1.03 1.10 | 1/18 (2.03) |
| KLTQHMRFEQKKKNNIA | EVTTRSK | QQYARLPLI | 0.94 0.86 1.04 0.23 1.06 1.21 | 1/18 (3.69) |
| HMSMLTMMGMRQRNSVA | QMTMREN | QQYDRLPLI | 2.13 ND ND 1.52 2.38 1.32 | 0/18 |
| IIDAIMFHGNKRANSIA | QASERVN | QQYHHLPLT | 0.65 0.64 0.47 0.54 0.80 0.72 | 0/18 |
| MISNVMNTLTRYGNNVA | DLAERED | QQYFRLPLS | 0.83 0.77 0.85 0.57 0.61 0.69 | 0/18 |

A selection of 4 entries from above:

| CDR-L1 | CDR-L2 | CDR-L3 | log10 Kd, replicates | empty controls |
|---|---|---|---|---|
| MVQQLYNMGTFAINSVA | QASQRNA | QQYDRLPLM | 2.26 ND ND 1.68 3.47 1.56 | 0/18 |
| KISQMVKVGSTHSNSIA | EEQTRAK | QQYHRLPLA | 0.89 0.82 0.89 0.95 0.88 1.23 | 2/18 (3.32) |
| MISNVMNTLTRYGNNVA | DLAERED | QQYFRLPLS | 0.83 0.77 0.85 0.57 0.61 0.69 | 0/18 |
| KLSMLTEMEHKNRNSVA | ELVTRMS | QQYNRLPLS | 0.62 0.51 0.34 0.40 0.47 0.68 | 1/18 (3.63) |

Values of this round are not directly comparable with the first-round values of the same sequences.
The parent sequence was in this pool as ten entries: three were never detected, three once, and four in most replicates, with averages from 0.34 to 2.37.
The authors' rule: three or more of the six replicates give a measured affinity, fewer mean a poor binder.